In publication PMC9960827, “Cloning and Characterization of Trypanosoma congolense and T. vivax Nucleoside Transporters Reveal the Potential of P1-Type Carriers for the Discovery of Broad-Spectrum Nucleoside-Based Therapeutics against Animal African Trypanosomiasis” (International Journal of Molecular Sciences, 2023):

Test system: T. congolense 6C3
Format: cell-based, Trypanosoma congolense
Settings: resistance factor = EC50 (test strain)/EC50(control strain)
Description: EC50 values were determined by plotting to an equation for a sigmoid curve with variable slope (GraphPad Prism 8). All values were the average of at least three independent determinations on different days.

Nc1ncnc2c1ccn2[C@@H]1O[C@H](CO)[C@@H](O)[C@H]1O [Tubercidin, 7-deazaadenosine]
T. congolense 6C3 RF: 0.58
